Test results taken from publication PMC6590375 (Journal of Clinical Pharmacology, 2019).

Assay type: in vivo
Settings: both, human, plasma, oral, 15 mg

half-life: 624 ± 672 min
Structure (SMILES): CC[C@@H]1CN(C(=O)NCC(F)(F)F)C[C@@H]1c1cnc2cnc3[nH]ccc3n12 [Upadacitinib]
